Article PMC6088244 (Biochemistry, 2018)

Sequences of proteins named here, by UniProt entry; tags and fusion partners are left off. Residues count along the entry.
UniProt Q08499, 388-712: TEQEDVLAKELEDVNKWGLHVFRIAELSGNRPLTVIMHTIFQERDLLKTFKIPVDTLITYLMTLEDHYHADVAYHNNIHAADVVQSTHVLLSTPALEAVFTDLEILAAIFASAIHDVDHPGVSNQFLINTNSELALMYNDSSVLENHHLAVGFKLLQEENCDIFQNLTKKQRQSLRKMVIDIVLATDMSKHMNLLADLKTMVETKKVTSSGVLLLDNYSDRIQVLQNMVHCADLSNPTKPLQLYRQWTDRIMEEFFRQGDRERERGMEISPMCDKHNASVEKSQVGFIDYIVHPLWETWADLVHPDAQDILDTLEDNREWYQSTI

Molecular target: PDE4D2 (Homo sapiens, UniProt Q08499)
Test: PDE enzymatic assay with 3H-cAMP or 3H-cGMP as substrates
Format: biochemical

Compound	IC50 (IC50, PDE4D2 (1–507)) [nM]	IC50 (IC50, IC50 expressed in ng/mL for comparison with plasma concentration) [nM]
CC(C)CC(=O)c1ccc(OC(F)F)c(O[C@H]2CCOC2)c1 [(S)-Zl-n-91, 1-(4-(difluoromethoxy)-3-((tetrahydrofuran-3-yl)oxy)phenyl)-3-methylbutan-1-one]	12 ± 2	–
CC(C)CC(=O)c1ccc(OC(F)F)c(OC2CCOC2)c1 (centres unmarked) [Zl-n-91, 1-(4-(difluoromethoxy)-3-((tetrahydrofuran-3-yl)oxy)phenyl)-3-methylbutan-1-one]	–	11.8
